{
  "sequences": {"note": "Sequences of proteins named here, by UniProt entry; tags and fusion partners are left off.", "UniProt Q03164, whole entry": "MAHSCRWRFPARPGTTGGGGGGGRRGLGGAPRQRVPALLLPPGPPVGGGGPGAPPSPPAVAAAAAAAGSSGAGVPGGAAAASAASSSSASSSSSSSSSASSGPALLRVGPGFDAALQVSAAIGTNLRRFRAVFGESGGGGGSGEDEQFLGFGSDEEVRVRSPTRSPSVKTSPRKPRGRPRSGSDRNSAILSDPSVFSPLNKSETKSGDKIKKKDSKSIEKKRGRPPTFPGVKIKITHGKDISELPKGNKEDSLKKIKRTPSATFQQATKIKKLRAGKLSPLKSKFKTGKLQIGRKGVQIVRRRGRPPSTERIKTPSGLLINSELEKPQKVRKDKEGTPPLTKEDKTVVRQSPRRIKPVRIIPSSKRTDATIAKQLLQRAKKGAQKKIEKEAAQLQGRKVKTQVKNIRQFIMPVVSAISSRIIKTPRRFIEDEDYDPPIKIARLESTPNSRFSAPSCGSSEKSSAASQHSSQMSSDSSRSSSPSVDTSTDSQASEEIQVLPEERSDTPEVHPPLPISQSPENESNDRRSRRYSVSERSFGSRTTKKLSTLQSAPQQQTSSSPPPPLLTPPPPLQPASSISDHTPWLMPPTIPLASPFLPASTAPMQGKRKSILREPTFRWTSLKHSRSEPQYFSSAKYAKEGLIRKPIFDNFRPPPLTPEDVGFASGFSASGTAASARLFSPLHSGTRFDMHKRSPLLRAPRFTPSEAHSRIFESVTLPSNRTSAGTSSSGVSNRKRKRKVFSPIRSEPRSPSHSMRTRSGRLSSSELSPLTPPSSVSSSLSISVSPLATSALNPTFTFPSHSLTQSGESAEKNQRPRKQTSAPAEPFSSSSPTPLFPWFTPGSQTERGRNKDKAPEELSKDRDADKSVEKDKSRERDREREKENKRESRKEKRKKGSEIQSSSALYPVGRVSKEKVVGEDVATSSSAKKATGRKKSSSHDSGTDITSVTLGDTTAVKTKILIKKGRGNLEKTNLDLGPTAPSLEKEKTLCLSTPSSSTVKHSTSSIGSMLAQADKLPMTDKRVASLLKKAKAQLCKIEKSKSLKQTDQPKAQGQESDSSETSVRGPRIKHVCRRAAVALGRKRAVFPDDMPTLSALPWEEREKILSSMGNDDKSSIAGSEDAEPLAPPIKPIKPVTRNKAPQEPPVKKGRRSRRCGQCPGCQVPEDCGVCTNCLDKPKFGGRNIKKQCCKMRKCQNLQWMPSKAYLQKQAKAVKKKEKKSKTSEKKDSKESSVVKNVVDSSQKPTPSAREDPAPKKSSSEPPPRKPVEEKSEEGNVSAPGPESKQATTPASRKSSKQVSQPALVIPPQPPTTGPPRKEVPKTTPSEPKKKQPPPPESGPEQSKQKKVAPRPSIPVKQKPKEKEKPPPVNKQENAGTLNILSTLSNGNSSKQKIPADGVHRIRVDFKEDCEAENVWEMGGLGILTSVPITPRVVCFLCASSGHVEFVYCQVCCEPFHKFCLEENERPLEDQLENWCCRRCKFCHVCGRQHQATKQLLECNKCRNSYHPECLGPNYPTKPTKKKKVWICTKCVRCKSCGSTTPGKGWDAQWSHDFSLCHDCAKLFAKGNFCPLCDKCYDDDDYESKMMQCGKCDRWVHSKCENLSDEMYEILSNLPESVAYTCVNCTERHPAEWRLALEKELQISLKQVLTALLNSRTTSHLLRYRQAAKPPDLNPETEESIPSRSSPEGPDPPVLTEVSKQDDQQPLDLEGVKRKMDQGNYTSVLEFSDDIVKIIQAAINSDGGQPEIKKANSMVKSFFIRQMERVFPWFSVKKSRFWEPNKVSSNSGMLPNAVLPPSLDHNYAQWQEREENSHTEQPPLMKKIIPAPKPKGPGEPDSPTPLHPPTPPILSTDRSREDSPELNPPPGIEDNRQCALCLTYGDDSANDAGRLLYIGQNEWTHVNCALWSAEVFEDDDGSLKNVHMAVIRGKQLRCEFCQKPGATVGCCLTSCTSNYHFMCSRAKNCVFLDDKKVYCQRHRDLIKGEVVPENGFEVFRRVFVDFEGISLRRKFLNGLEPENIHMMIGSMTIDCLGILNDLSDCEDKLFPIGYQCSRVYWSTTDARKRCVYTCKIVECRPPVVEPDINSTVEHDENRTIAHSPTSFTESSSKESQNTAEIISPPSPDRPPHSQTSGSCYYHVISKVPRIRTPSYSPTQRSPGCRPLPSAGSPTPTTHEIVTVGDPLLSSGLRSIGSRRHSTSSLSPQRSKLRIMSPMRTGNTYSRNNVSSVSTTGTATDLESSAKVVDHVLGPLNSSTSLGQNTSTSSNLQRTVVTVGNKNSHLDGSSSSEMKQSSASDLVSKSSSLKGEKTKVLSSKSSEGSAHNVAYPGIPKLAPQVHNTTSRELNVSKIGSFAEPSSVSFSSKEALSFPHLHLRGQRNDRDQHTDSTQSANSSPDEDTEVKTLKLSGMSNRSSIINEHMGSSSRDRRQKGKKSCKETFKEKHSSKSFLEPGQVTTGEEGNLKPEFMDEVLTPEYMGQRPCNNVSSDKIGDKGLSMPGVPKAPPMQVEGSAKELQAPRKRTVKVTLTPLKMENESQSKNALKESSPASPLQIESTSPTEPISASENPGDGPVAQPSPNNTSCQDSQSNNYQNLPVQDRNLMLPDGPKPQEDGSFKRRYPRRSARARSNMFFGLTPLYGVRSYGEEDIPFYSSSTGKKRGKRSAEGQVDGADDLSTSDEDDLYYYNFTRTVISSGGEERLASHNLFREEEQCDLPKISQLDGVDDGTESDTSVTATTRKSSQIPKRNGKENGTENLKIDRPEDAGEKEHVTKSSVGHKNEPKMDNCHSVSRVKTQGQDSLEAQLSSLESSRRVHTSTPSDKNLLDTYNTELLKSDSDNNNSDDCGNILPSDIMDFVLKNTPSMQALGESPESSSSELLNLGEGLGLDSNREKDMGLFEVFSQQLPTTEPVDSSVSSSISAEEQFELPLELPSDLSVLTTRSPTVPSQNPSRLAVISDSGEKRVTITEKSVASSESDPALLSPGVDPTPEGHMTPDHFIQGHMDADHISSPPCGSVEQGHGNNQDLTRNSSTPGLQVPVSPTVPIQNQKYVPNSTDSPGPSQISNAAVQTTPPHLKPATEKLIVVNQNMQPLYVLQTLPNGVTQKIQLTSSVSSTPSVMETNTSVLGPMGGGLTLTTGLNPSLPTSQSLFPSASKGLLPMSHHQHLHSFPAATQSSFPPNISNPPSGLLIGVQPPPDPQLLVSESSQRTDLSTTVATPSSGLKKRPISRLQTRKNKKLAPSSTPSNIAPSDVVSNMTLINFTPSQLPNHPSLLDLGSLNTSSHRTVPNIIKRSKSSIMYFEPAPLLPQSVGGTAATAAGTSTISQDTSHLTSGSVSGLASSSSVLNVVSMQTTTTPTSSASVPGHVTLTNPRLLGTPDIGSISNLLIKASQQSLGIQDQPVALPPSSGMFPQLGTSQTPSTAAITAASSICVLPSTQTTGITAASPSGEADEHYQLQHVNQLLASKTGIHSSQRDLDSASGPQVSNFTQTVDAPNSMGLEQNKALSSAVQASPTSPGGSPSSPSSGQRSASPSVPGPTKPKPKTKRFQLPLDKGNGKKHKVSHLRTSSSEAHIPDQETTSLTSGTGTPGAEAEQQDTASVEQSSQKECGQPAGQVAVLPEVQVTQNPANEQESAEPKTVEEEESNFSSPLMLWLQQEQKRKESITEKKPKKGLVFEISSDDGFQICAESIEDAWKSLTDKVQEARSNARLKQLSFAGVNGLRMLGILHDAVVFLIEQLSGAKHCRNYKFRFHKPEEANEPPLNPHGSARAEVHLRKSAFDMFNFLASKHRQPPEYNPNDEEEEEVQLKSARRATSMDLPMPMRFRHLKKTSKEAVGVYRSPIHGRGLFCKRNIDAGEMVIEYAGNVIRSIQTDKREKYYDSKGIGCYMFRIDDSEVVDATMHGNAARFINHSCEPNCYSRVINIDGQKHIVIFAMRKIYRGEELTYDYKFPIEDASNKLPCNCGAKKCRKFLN"},
  "source": "PubChem BioAssay AID2662",
  "about": "(National Center for Advancing Translational Sciences (NCATS), 2010)",
  "note": "The entries are a selection whose mix differs from that of the whole data set. Some of these compounds have results that are not shown, active ones among them. Activity calls are given as the source filed them. The call rests on the fitted dose curve; in most records, active means well fitted inhibition curve with a large enough effect in the polarisation, with a control signal flat (not every such curve was filed as active); inconclusive means small, poorly fitted or top-dose-only effect, or effect the other way, or a change in a side signal; inactive means no such curve, though single readings can be large or run the other way; the % refers to the polarisation.",
  "data": [
    {"molecular_target": "Histone-lysine N-methyltransferase 2A (Homo sapiens) (UniProt Q03164)", "assay": "qHTS Fluorescence Polarization Assay for Inhibitors of MLL CXXC domain - DNA interaction", "conditions": "MLL-CXXC / FITC-HOXA9 DNA fluorescence polarization; at 115 µM (top of the series)", "values": [
      {"molecule": "O=C(OC1CN2CCC1CC2)C(CO)(c1ccccc1)c1ccccc1", "note": "(stereo not given)", "activity change, negative = inhibition": "inactive: 7.43%"},
      {"molecule": "CC(C)Oc1ccc(C(=O)NCC2(N(C)C)CCCCC2)cc1", "activity change, negative = inhibition": "inactive: 6.33%"},
      {"molecule": "CN(C)c1cccc(C(=O)NCC2(N(C)C)CCCCC2)c1", "activity change, negative = inhibition": "inactive: -6.46%"},
      {"molecule": "COc1ccc(Br)c(C(=O)NCC2(N3CCCCC3)CCCCC2)c1", "activity change, negative = inhibition": "inactive: 30.9%"},
      {"molecule": "COc1cc(C(=O)NCC2(N(C)C)CCCCC2)c([N+](=O)[O-])cc1OC", "activity change, negative = inhibition": "inactive: 13.5%"},
      {"molecule": "CN(C)C1(CNC(=O)c2ccc(Br)cc2)CCCCC1", "activity change, negative = inhibition": "inactive: -0.232%"},
      {"molecule": "O=C(NCC1(N2CCCCC2)CCCCC1)c1cccc(Cl)c1", "activity change, negative = inhibition": "inactive: -7.6%"},
      {"molecule": "COc1cccc(C(=O)NCC2(N3CCCCC3)CCCCC2)c1", "activity change, negative = inhibition": "inactive: 8.89%"},
      {"molecule": "COc1ccc(Cl)cc1C(=O)NCC1(N(C)C)CCCCC1", "activity change, negative = inhibition": "inactive: 11.5%"},
      {"molecule": "CN1CCCC(OC(=O)C(O)(c2ccccc2)c2ccccc2)C1", "note": "(stereo not given)", "activity change, negative = inhibition": "inactive: 5.49%"},
      {"molecule": "Cc1ccccc1C(=O)NCC1(N2CCCCC2)CCCCC1", "activity change, negative = inhibition": "inactive: 18.7%"},
      {"molecule": "CN(C)c1ccc(C(=O)NCC2(N(C)C)CCCCC2)cc1", "activity change, negative = inhibition": "inactive: 0.392%"},
      {"molecule": "CN(C)C1CCCC1OC(=O)C(O)(c1ccccc1)c1ccccc1", "note": "(stereo not given)", "activity change, negative = inhibition": "inactive: 5.66%"},
      {"molecule": "COc1ccc(C(=O)NCC2(N(C)C)CCCCC2)cc1", "activity change, negative = inhibition": "inactive: 10.3%"},
      {"molecule": "CCN1CCCC(OC(=O)C2(O)c3ccccc3C=Cc3ccccc32)C1", "note": "(stereo not given)", "activity change, negative = inhibition": "inactive: 9.31%"},
      {"molecule": "Cc1cc(C(=O)NCC2(N3CCCCC3)CCCCC2)ccc1[N+](=O)[O-]", "activity change, negative = inhibition": "inactive: -2.05%"},
      {"molecule": "O=C(NCC1(N2CCCCC2)CCCCC1)c1cccc(Br)c1", "activity change, negative = inhibition": "inactive: -2.14%"},
      {"molecule": "C=CCN1CCN(CCOC(=O)C(O)(c2ccccc2)c2ccccc2)CC1", "activity change, negative = inhibition": "inactive: -4.46%"},
      {"molecule": "O=C(NCC1(N2CCCCC2)CCCCC1)c1cc(F)c(F)cc1Cl", "activity change, negative = inhibition": "inactive: -6.54%"},
      {"molecule": "CN1[C@@H]2CC[C@H]1CC(OC(=O)C(O)(c1ccccc1)c1ccccc1)C2", "note": "(stereo not given in full)", "activity change, negative = inhibition": "inactive: -20.1%"},
      {"molecule": "O=C(NCC1(N2CCCCC2)CCCCC1)c1cc([N+](=O)[O-])ccc1Cl", "activity change, negative = inhibition": "inactive: 21.2%"},
      {"molecule": "Cc1ccc(C(=O)NCC2(N3CCCCC3)CCCCC2)cc1", "activity change, negative = inhibition": "inactive: 14.3%"},
      {"molecule": "CCN(CC)CC(C)C(C)OC(=O)C(O)(c1ccccc1)c1ccccc1", "note": "(stereo not given)", "activity change, negative = inhibition": "inactive: -6.68%"},
      {"molecule": "COc1cc(SC)ccc1C(=O)NCC1(N(C)C)CCCCC1", "activity change, negative = inhibition": "inactive: 3.77%"},
      {"molecule": "CC(C)N1C(=O)CC2(CCN(CCOC(=O)C(O)(c3ccccc3)c3ccccc3)CC2)C1=O", "activity change, negative = inhibition": "inactive: -6.23%"}
    ]}
  ]
}
